## Permeability data for macrocyclic peptides

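Conditions beyond the assay type are not listed; see the original paper. Other peptides of the study may be missing here. Peptides that the database sets to -10, its floor, are left out.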

PAMPA measures passive passage through an artificial lipid membrane.
P is given in units of 10^-6 cm/s (from log10 values with two decimals); larger means faster passage.

{"smiles": "CC(C)C[C@@H]1NC(=O)[C@@H](CC(C)C)N(C)C(=O)C[C@H](Cc2ccccc2)NC(=O)[C@H]2CCCN2C(=O)[C@H](Cc2ccccc2)NC(=O)[C@H](CC(C)C)N(C)C(=O)[C@H]2CCCN2C1=O", "PAMPA (10^-6 cm/s)": "3.5"}
{"smiles": "CCCN1CC(=O)N(C)[C@H](CC(C)C)C(=O)N(C)[C@@H](CC(C)C)C(=O)N2CCC[C@@H]2C(=O)N(C)[C@H](CC(C)C)C(=O)N[C@@H](Cc2ccccc2)C1=O", "PAMPA (10^-6 cm/s)": "8.1"}
{"smiles": "CC(C)C[C@@H]1C(=O)N[C@@H](Cc2ccccc2)C(=O)N[C@H](C)C(=O)N[C@H](CC(C)C)C(=O)N(C)[C@@H](CC(C)C)C(=O)N2CCC[C@@H]2C(=O)N1C", "PAMPA (10^-6 cm/s)": "3.4"}
{"smiles": "CC(C)C[C@@H]1C(=O)N[C@@H](Cc2ccccc2)C(=O)N2CCC[C@H]2C(=O)N(C)[C@H](C)C(=O)N[C@H](CC(C)C)C(=O)N[C@@H](Cc2ccccc2)CC(=O)N2CCC[C@H]2C(=O)N1C", "PAMPA (10^-6 cm/s)": "1.1"}
{"smiles": "CC(C)C[C@@H]1NC(=O)[C@@H](CC(C)C)N(C)C(=O)C[C@H](Cc2ccccc2)NC(=O)[C@@H]2CCCN2C(=O)[C@H](Cc2ccccc2)NC(=O)[C@@H](CC(C)C)N(C)C(=O)[C@@H]2CCCN2C1=O", "PAMPA (10^-6 cm/s)": "5"}
{"smiles": "CC(C)C[C@@H]1NC(=O)[C@H](C)NC(=O)[C@H]2CCCN2C(=O)[C@H](Cc2ccccc2)NC(=O)CN(Cc2ccccc2)C(=O)[C@H]2CCCN2C(=O)[C@@H](CC(C)C)NC1=O", "PAMPA (10^-6 cm/s)": "0.13"}
{"smiles": "CC(C)C[C@H]1NC(=O)[C@H](C)NC(=O)[C@H](Cc2ccccc2)NC(=O)[C@H](CC(C)C)N(C)C(=O)[C@H]2CCCN2C(=O)[C@@H](CC(C)C)NC1=O", "PAMPA (10^-6 cm/s)": "0.52"}
{"smiles": "CC(C)C[C@@H]1NC(=O)[C@@H](C)N(C)C(=O)[C@H]2CCCN2C(=O)[C@H](Cc2ccccc2)NC(=O)[C@@H](CC(C)C)NC(=O)[C@H]2CCCN2C(=O)CN(Cc2ccccc2)C1=O", "PAMPA (10^-6 cm/s)": "0.71"}
{"smiles": "CC(C)C[C@@H]1C(=O)N[C@@H](Cc2ccccc2)C(=O)N2CCC[C@@H]2C(=O)N[C@@H](Cc2ccccc2)CC(=O)N[C@H](CC(C)C)C(=O)N[C@H](CC(C)C)C(=O)N2CCC[C@@H]2C(=O)N1C", "PAMPA (10^-6 cm/s)": "1.3"}
{"smiles": "CC(C)C[C@@H]1C(=O)N[C@@H](Cc2ccccc2)C(=O)N2CCC[C@H]2C(=O)N(C)[C@@H](C)C(=O)N(Cc2ccccc2)CC(=O)N(C)[C@@H](CC(C)C)C(=O)N2CCC[C@H]2C(=O)N1C", "PAMPA (10^-6 cm/s)": "1.8"}
{"smiles": "CC(C)C[C@H]1C(=O)N[C@@H](Cc2ccccc2)C(=O)N2CCC[C@@H]2C(=O)N(C)[C@@H](C)C(=O)N(C)[C@@H](CC(C)C)C(=O)N(Cc2ccccc2)CC(=O)N2CCC[C@@H]2C(=O)N1C", "PAMPA (10^-6 cm/s)": "2.4"}
{"smiles": "CCCN1CC(=O)N[C@H](CC(C)C)C(=O)N[C@@H](Cc2ccccc2)CC(=O)N2CCC[C@@H]2C(=O)N[C@@H](CC(C)C)C(=O)N[C@@H](Cc2ccccc2)C(=O)N2CCC[C@@H]2C1=O", "PAMPA (10^-6 cm/s)": "0.26"}
{"smiles": "CC(C)C[C@@H]1NC(=O)[C@H](C)N(C)C(=O)[C@H](Cc2ccccc2)NC(=O)[C@@H](CC(C)C)N(C)C(=O)[C@@H]2CCCN2C(=O)[C@@H](CC(C)C)NC1=O", "PAMPA (10^-6 cm/s)": "8.5"}
{"smiles": "CCCN1CC(=O)N(C)[C@@H](CC(C)C)C(=O)N[C@H](CC(C)C)C(=O)N2CCC[C@@H]2C(=O)N[C@H](CC(C)C)C(=O)N[C@@H](Cc2ccccc2)C1=O", "PAMPA (10^-6 cm/s)": "6.5"}
{"smiles": "CC(C)C[C@@H]1NC(=O)[C@H]2CCCN2C(=O)[C@@H](CC(C)C)N(C)C(=O)[C@@H](CC(C)C)N(C)C(=O)[C@@H](C)N(C)C(=O)[C@@H]2CCCN2C(=O)[C@H](Cc2ccccc2)NC1=O", "PAMPA (10^-6 cm/s)": "0.98"}
{"smiles": "CC(C)C[C@H]1NC(=O)[C@H](C)NC(=O)[C@H](Cc2ccccc2)NC(=O)[C@@H](CC(C)C)NC(=O)[C@H]2CCCN2C(=O)[C@@H](CC(C)C)NC1=O", "PAMPA (10^-6 cm/s)": "0.21"}
{"smiles": "CC(C)C[C@@H]1C(=O)N[C@@H](Cc2ccccc2)C(=O)N2CCC[C@@H]2C(=O)N(C)[C@H](C)C(=O)N(C)[C@@H](CC(C)C)C(=O)N[C@H](CC(C)C)C(=O)N2CCC[C@H]2C(=O)N1C", "PAMPA (10^-6 cm/s)": "5.9"}
{"smiles": "CCCN1CC(=O)N(C)[C@H](CC(C)C)C(=O)N[C@@H](CC(C)C)C(=O)N2CCC[C@H]2C(=O)N(Cc2ccccc2)CC(=O)N[C@@H](Cc2ccccc2)C(=O)N2CCC[C@@H]2C1=O", "PAMPA (10^-6 cm/s)": "11"}
{"smiles": "CC(C)C[C@@H]1NC(=O)[C@@H]2CCCN2C(=O)CN(Cc2ccccc2)C(=O)[C@H](CC(C)C)N(C)C(=O)[C@@H](C)N(C)C(=O)[C@@H]2CCCN2C(=O)[C@H](Cc2ccccc2)NC1=O", "PAMPA (10^-6 cm/s)": "2.1"}
{"smiles": "CC(C)C[C@H]1NC(=O)[C@H](C)NC(=O)[C@@H]2CCCN2C(=O)[C@H](Cc2ccccc2)NC(=O)[C@H](CC(C)C)N(C)C(=O)[C@H]2CCCN2C(=O)[C@H](CC(C)C)N(C)C1=O", "PAMPA (10^-6 cm/s)": "1.7"}
{"smiles": "CC(C)C[C@@H]1C(=O)N[C@@H](Cc2ccccc2)C(=O)N2CCC[C@@H]2C(=O)N(C)[C@H](C)C(=O)N(C)[C@@H](CC(C)C)C(=O)N(C)[C@H](CC(C)C)C(=O)N2CCC[C@@H]2C(=O)N1C", "PAMPA (10^-6 cm/s)": "0.65"}
{"smiles": "CCCN1CC(=O)N(C)[C@H](CC(C)C)C(=O)N(C)[C@@H](CC(C)C)C(=O)N2CCC[C@@H]2C(=O)N(Cc2ccccc2)CC(=O)N[C@@H](Cc2ccccc2)C(=O)N2CCC[C@@H]2C1=O", "PAMPA (10^-6 cm/s)": "7.9"}

A selection of 3 entries from above:

{"smiles": "CC(C)C[C@H]1NC(=O)[C@H](C)NC(=O)[C@@H]2CCCN2C(=O)[C@H](Cc2ccccc2)NC(=O)[C@H](CC(C)C)N(C)C(=O)[C@H]2CCCN2C(=O)[C@H](CC(C)C)N(C)C1=O", "PAMPA (10^-6 cm/s)": "1.7"}
{"smiles": "CC(C)C[C@@H]1C(=O)N[C@@H](Cc2ccccc2)C(=O)N[C@H](C)C(=O)N[C@H](CC(C)C)C(=O)N(C)[C@@H](CC(C)C)C(=O)N2CCC[C@@H]2C(=O)N1C", "PAMPA (10^-6 cm/s)": "3.4"}
{"smiles": "CC(C)C[C@@H]1NC(=O)[C@H]2CCCN2C(=O)[C@@H](CC(C)C)N(C)C(=O)[C@@H](CC(C)C)N(C)C(=O)[C@@H](C)N(C)C(=O)[C@@H]2CCCN2C(=O)[C@H](Cc2ccccc2)NC1=O", "PAMPA (10^-6 cm/s)": "0.98"}

Data: CycPeptMPDB; original report Townsend et al. 2020, doi:10.26434/chemrxiv.13335941.v1.